Experiment: Pharmacokinetics and bioavailability in guinea pigs, oral
Type: in vivo, guinea pig

## Cc1c(Br)cc(NC(=O)CS(=O)(=O)O)cc1Br
Co-admin of L335M34 (50 mg/kg) and L01Z08 (20 mg/kg)
  AUCALL: 52752.61 ng·h/mL
L335-M34 50 mg/kg, L01-Z08 20 mg/kg
  time plasma concentration is 10-fold in excess of biochemical IC50: 12-14 hours
